Earlier results on 1 molecule are cited in EP0853484B1, “NOVEL MU OPIOID RECEPTOR LIGANDS: AGONISTS AND ANTAGONISTS” (TORREY PINES INSTITUTE FOR MOLECULAR STUDIES, priority 1995, dated 1996).

Like-named read-outs stand apart in the source and are kept apart here.

The test system of this series is guinea-pig ileum. To be noted: GPI, cited from earlier work.

For `C=CCN1CC[C@]23c4c5ccc(O)c4O[C@H]2C(=O)CC[C@@]3(O)[C@H]1C5` [naloxone], the Kb (read-out: Ke for naloxone as the antagonist, µ effects, µ receptor mediated effects) was 1 to 3 nM and the Kb (read-out: Ke for naloxone as the antagonist, κ effects, κ receptor mediated effects) was 20 to 30 nM.
